# Reference: patent US6323205A (priority 2000, dated 2001)
# Read-outs that look alike come from different tables or passages of the source.
# Conditions: rat, in vivo, iv
compound,measurement,setting,value
C#CCC(Cc1cnc2nc(N)nc(N)c2n1)c1ccc(C(=O)N[C@@H](CCC(=O)O)C(=O)O)cc1 (stereo partly drawn) [10-propargyl-10-deazaaminopterin],Survivors After 32 days,50 mg/kg,5/5
same,body weight changes,50 mg/kg,no apparent changes in body weight were observed
same,Survivors After 32 days,100 mg/kg,4/5
same,Survivors After 32 days,150 mg/kg,2/5
same,rats died,150 mg/kg,three out of the five rats died
same,Survivors After 32 days,200 mg/kg,0/5
same,rats died,200 mg/kg,all five rats died
same,Survivors After 32 days,300 mg/kg,0/5
same,rats died,300 mg/kg,all five rats also died
